Experimental findings from ChEMBL document CHEMBL3351413, “Development of quinone analogues as dynamin GTPase inhibitors” (Eur J Med Chem, 2014) are described below.

This assay can be described thus: Inhibition of phosphatidylserine-stimulated GTPase activity of sheep brain Dynamin 1 expressed in Sf21 cells assessed as inhibition of orthophosphate release from GTP up to 300 uM by malachite green method. Particulars: Ovis aries. The method in brief:
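DynI at 50 nM final was stimulated with phosphatidylserine liposomes for 30 min. Orthophosphate released from GTP was detected colorimetrically by Malachite Green. Compounds came from 30 mM DMSO stocks diluted in 50% DMSO/20 mM Tris-HCl pH 7.4; final DMSO was at most 3.3%.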

Calls of active or inactive are those of the source. The rule behind the calls is not given here.

Take `O=C1C=C(NCCCl)C(=O)C=C1NCCCl`: the inhibition entry was “inactive”. Consider `O=C1C=C(NCCBr)C(=O)C=C1NCCBr`, for which the inhibition result was “inactive”.
